Measurements reported in article PMC7043024.
“And” between values parts separate entries of the source, which are not always exact repeats. Equal entries are not always repeated.

Biological target: 185-bp H3K4-propargyl nucleosome (Xenopus)
Test: native gel or EMSA; CoREST complex mixed at various ratios with 185-bp H3K4-propargyl nucleosome; 0.7% agarose gel in 0.5x TB, ethidium bromide then InstantBlue; the propargyl group is designed to couple to FAD in the LSD1 active site

stoichiometry N: 1 and 2
Substance: CoREST ternary complex (LSD1:RCOR1:HDAC1) (from UniProt O60341 1-852; Q13547 1-482; Q9UKL0 86-485)
